# Experimental properties from OPERA 2.9

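The numbers are reported measurements, compiled and curated for the OPERA QSAR suite. A listed value is a point estimate from one report or more. How each value was measured is not recorded, so precision varies. The measured form (salt, isomer or mixture) is not always the one drawn. Some upstream entries may be estimates or bounds without being marked so.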

Melting points are in °C.
Boiling points are in °C, nominally at 760 mmHg.
logP is the log10 of the octanol-water partition coefficient; higher is more lipophilic.
Solubility in water is on a log10 molar scale (set defined at 25 °C).
Vapor pressures (log10 mmHg) refer to near room temperature, 15 to 30 °C; higher is more volatile.
Henry's law constant (air-water partitioning) is log10 of atm·m3/mol, nominally at 25 °C.
The unbound fraction in human plasma runs from 0 (all bound) to 1 (all free).
Clint is human hepatic intrinsic clearance in µL/min per million cells; 0 means that no clearance was seen.

* Cc1nn(C)c(F)c1C(=O)Nc1ccccc1C(C)CC(C)C (centres undefined): log vapor pressure -8.511 (log10 mmHg); log Henry constant -9.985 (log10 atm·m3/mol)
* CCCCCCCCCCCCCCCCOC(=O)c1cc(C(C)(C)C)c(O)c(C(C)(C)C)c1: BP 334.9 °C; log vapor pressure -4.358 (log10 mmHg)
* COc1ccc(CC(C#N)C(=O)O)cc1OC (centres undefined): MP 140.6 °C; log Kow -1.74; water solubility -1.801 (log10 mol/L); log vapor pressure -7.401 (log10 mmHg)
* CCO[Si](OCC)(OCC)c1ccccc1: MP -100.1 °C; log vapor pressure -1.648 (log10 mmHg)
* CCCCOC(=O)CCCCC(=O)OCCCC: log Kow 4.17; log vapor pressure -3.803 (log10 mmHg)
* CN(Cc1ccc(C(C)(C)C)cc1)Cc1cccc2ccccc12: log Kow 6.6; water solubility -6.623 (log10 mol/L)
* CC(=O)N[C@@H](CS)C(=O)O: log Kow -0.6; log vapor pressure -7.777 (log10 mmHg); fraction unbound 0.17
* CCCCCCCCCCCCC(CCCCCCCCCC)C(=O)O (centres undefined): MP 46.5 °C; water solubility -5.868 (log10 mol/L); log vapor pressure -10.24 (log10 mmHg)
* Nc1cc(S(=O)(=O)[O-])cc2cc(S(=O)(=O)[O-])c(N=Nc3ccccc3)c(O)c12.[Na+].[Na+]: MP 349.9 °C; log Kow -2.09
* C=C[C@H]1CC[C@H]([C@H]2CC[C@H](CCC)CC2)CC1: MP 34.4 °C; BP 329 °C; water solubility -7.069 (log10 mol/L); log vapor pressure -3.771 (log10 mmHg)
* C[C@]12CCC(=O)C=C1CC[C@@H]1[C@@H]2[C@@H](O)C[C@]2(C=O)[C@@H](C(=O)CO)CC[C@@H]12: log Kow 1.08; water solubility -3.85 (log10 mol/L)
* Nc1ccc(-c2ccc(N)c3c2C(=O)c2ccccc2C3=O)c2c1C(=O)c1ccccc1C2=O: log Kow -0.245; water solubility -7.25 (log10 mol/L)
* CCN(CC)CC(=O)OCC(=O)[C@@]1(O)CC[C@H]2[C@@H]3CCC4=CC(=O)CC[C@]4(C)[C@H]3[C@@H](O)C[C@@]21C: log Kow 1.2; water solubility -3.745 (log10 mol/L)
* CC(C)C(NC(N)=O)NC(N)=O: MP 206.2 °C; log Kow -0.902
* Cl.Cn1sccc1=O: MP 167.5 °C; log Kow -0.44; log vapor pressure -2.18 (log10 mmHg)
* Clc1cc(Cl)c(Oc2c(Cl)c(Cl)c(Cl)c(Cl)c2Cl)cc1Cl: MP 168 °C; water solubility -10.14 (log10 mol/L)
* CCCCCCCCC1CCC(=O)O1 (centres undefined): log Kow 2.7; water solubility -3.519 (log10 mol/L)
* CCN(CC)c1ccc(N=Nc2c(C#N)cc([N+](=O)[O-])cc2[N+](=O)[O-])c(NC(C)=O)c1: MP 204 °C; log Kow 3.11; water solubility -6.328 (log10 mol/L); log vapor pressure -12.78 (log10 mmHg)
* CCCCCCCCCCCCCCCCCC(=O)OC(CCCCCC)CCCCCCCCCCC(=O)OCC(CCCCCCCC)CCCCCCCCCC (centres undefined): MP -10 °C; water solubility -8.785 (log10 mol/L)
* Nc1ccc(Cl)c(S(=O)(=O)O)c1: BP 290 °C; water solubility -1.754 (log10 mol/L)
* Cc1ccc(I)cc1Cc1ccc(-c2ccc(F)cc2)s1: MP 109.4 °C; log Kow 7.5; water solubility -7.785 (log10 mol/L); log vapor pressure -7.082 (log10 mmHg)
* C/C=C/C(=O)C1=C(C)C=CCC1(C)C: MP 1.8 °C; log Kow 3.4; water solubility -3.005 (log10 mol/L); log vapor pressure -1.648 (log10 mmHg)
* c1ccc2sc(SN3CCOCC3)nc2c1: log Kow 3.49; water solubility -6.811 (log10 mol/L)
* CS(O)(=O)=O.CC(C)(C)c1cc(/C=C2SC(=N)NC2=O)cc(c1O)C(C)(C)C: fraction unbound 0.00678; hepatic Clint 0 µL/min/10^6 cells
* CN(C)C(=O)Nc1ccccc1: fraction unbound 0.564; hepatic Clint 2.89 µL/min/10^6 cells
* COc1nc(OC)nc(C(=O)c2cccc(F)c2N(C)S(=O)(=O)C(F)F)n1: MP 102.8 °C; log Kow 1.5; water solubility -4.065 (log10 mol/L); log vapor pressure -7.319 (log10 mmHg)
* OC[C@@H]1CO[C@@](Cn2cncn2)(c2ccc(Cl)cc2Cl)O1 (relative stereo): MP 135.6 °C; water solubility -2.906 (log10 mol/L); log vapor pressure -7.609 (log10 mmHg)

Excerpt, the final 2 entries:

- COc1nc(OC)nc(C(=O)c2cccc(F)c2N(C)S(=O)(=O)C(F)F)n1: MP 102.8 °C; log Kow 1.5; water solubility -4.065 (log10 mol/L); log vapor pressure -7.319 (log10 mmHg)
- OC[C@@H]1CO[C@@](Cn2cncn2)(c2ccc(Cl)cc2Cl)O1 (relative stereo): MP 135.6 °C; water solubility -2.906 (log10 mol/L); log vapor pressure -7.609 (log10 mmHg)

Data: OPERA 2.9 data sets, kmansouri/OPERA on GitHub.